{
  "source": "ChEMBL document CHEMBL4765236",
  "about": "“Insights into the Antimicrobial Activity and Cytotoxicity of Engineered α-Helical Peptide Amphiphiles” (J Med Chem, 2016)",
  "key": {"Escherichia coli [1]": {"tested_on": "Escherichia coli", "test": "Antibacterial activity against Escherichia coli ATCC 35150 assessed as bacterial growth inhibition incubated for 18 to 24 hrs by microtiter broth dilution method", "format": "functional", "conditions": "time 18-24 hrs", "procedure,_shortened": "(§1)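 Log-phase cells (grown overnight at 37 °C, subcultured in MHB) diluted to 10^5 CFU/mL in MHB and mixed 1:1 with serial peptide dilutions prepared in 0.01% acetic acid/0.2% BSA. Incubated 37 °C for 18-24 h. MIC is the lowest concentration giving no growth by OD492. Reported as the average of 3-5 independent experiments.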"}, "Staphylococcus aureus [2]": {"tested_on": "Staphylococcus aureus", "test": "Antibacterial activity against Staphylococcus aureus GIM 1.160 assessed as bacterial growth inhibition incubated for 18 to 24 hrs by microtiter broth dilution method", "format": "functional", "conditions": "time 18-24 hrs", "procedure,_shortened": "as §1"}, "Escherichia coli [3]": {"tested_on": "Escherichia coli", "test": "Antibacterial activity against Escherichia coli ATCC 25922 assessed as bacterial growth inhibition incubated for 18 to 24 hrs by microtiter broth dilution method", "format": "functional", "conditions": "time 18-24 hrs", "procedure,_shortened": "as §1"}, "Staphylococcus aureus [4]": {"tested_on": "Staphylococcus aureus", "test": "Antibacterial activity against Staphylococcus aureus ATCC 29213 assessed as bacterial growth inhibition incubated for 18 to 24 hrs by microtiter broth dilution method", "format": "functional", "conditions": "time 18-24 hrs", "procedure,_shortened": "as §1"}, "Salmonella typhimurium": {"tested_on": "Salmonella typhimurium", "test": "Antibacterial activity against Salmonella typhimurium CMCC 51005 assessed as bacterial growth inhibition incubated for 18 to 24 hrs by microtiter broth dilution method", "format": "functional, Salmonella enterica subsp. enterica serovar Typhimurium", "conditions": "Salmonella enterica, time 18-24 hrs", "procedure,_shortened": "as §1"}, "Listeria monocytogenes [5]": {"tested_on": "Listeria monocytogenes", "test": "Antibacterial activity against Listeria monocytogenes CICC 21633 assessed as bacterial growth inhibition incubated for 18 to 24 hrs by microtiter broth dilution method", "format": "functional", "conditions": "time 18-24 hrs", "procedure,_shortened": "as §1"}, "Listeria monocytogenes [6]": {"tested_on": "Listeria monocytogenes", "test": "Antibacterial activity against Listeria monocytogenes CICC 21662 assessed as bacterial growth inhibition incubated for 18 to 24 hrs by microtiter broth dilution method", "format": "functional", "conditions": "time 18-24 hrs", "procedure,_shortened": "as §1"}, "Staphylococcus aureus [7]": {"tested_on": "Staphylococcus aureus", "test": "Antibacterial activity against methicillin resistant Staphylococcus aureus ATCC 43300 assessed as bacterial growth inhibition incubated for 18 to 24 hrs by microtiter broth dilution method", "format": "functional", "conditions": "time 18-24 hrs", "procedure,_shortened": "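Log-phase bacteria grown at 37 °C in MHB, diluted to 10^5 CFU/mL, mixed 1:1 with serial peptide dilutions (peptide diluted in 0.01% acetic acid, 0.2% BSA); 37 °C for 18-24 h. MIC read by OD492 as lowest concentration giving no growth; mean of 3-5 independent experiments.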"}},
  "data": [
    {"smiles": "CC[C@H](C)[C@H](NC(=O)CN)C(=O)NCC(=O)N[C@@H](C)C(=O)N[C@H](C(=O)N[C@@H](CC(C)C)C(=O)N[C@@H](CCCCN)C(=O)N[C@H](C(=O)N[C@@H](CC(C)C)C(=O)N[C@H](C(=O)N[C@H](C(=O)NCC(=O)N[C@@H](CC(C)C)C(=O)N1CCC[C@H]1C(=O)N[C@@H](C)C(=O)N[C@@H](CC(C)C)C(=O)N[C@H](C(=O)N[C@@H](CO)C(=O)N[C@@H](Cc1c[nH]c2ccccc12)C(=O)N[C@H](C(=O)N[C@@H](CCCCN)C(=O)N[C@@H](CCCNC(=N)N)C(=O)N[C@@H](CCCCN)C(=O)N[C@@H](CCCNC(=N)N)C(=O)N[C@@H](CCC(N)=O)C(=O)N[C@@H](CCC(N)=O)C(N)=O)[C@@H](C)CC)[C@@H](C)CC)[C@@H](C)O)[C@@H](C)O)C(C)C)C(C)C", "note": "[MELITTIN]", "values": [
      {"measurement": "MIC", "setting": "Escherichia coli [1]", "result": 1.41, "unit": "µM"},
      {"measurement": "MIC", "setting": "Staphylococcus aureus [2]", "result": 2.81, "unit": "µM"},
      {"measurement": "MIC", "setting": "Escherichia coli [3]", "result": 0.35, "unit": "µM"},
      {"measurement": "MIC", "setting": "Staphylococcus aureus [4]", "result": 1.41, "unit": "µM"},
      {"measurement": "MIC", "setting": "Salmonella typhimurium", "result": 2.81, "unit": "µM"},
      {"measurement": "MIC", "setting": "Listeria monocytogenes [5]", "result": 0.35, "unit": "µM"},
      {"measurement": "MIC", "setting": "Listeria monocytogenes [6]", "result": 0.18, "unit": "µM"},
      {"measurement": "MIC", "setting": "Staphylococcus aureus [7]", "result": 1.41, "unit": "µM"}
    ]}
  ]
}
